Assay results taken from PubChem BioAssay AID504558 (Broad Institute, 2011).
This is a selection; strong and weak results do not stand in their true shares. Active and inactive are the calls of the source. No stated cut-off is given here; in the data, active means inhibition above about 41%; inconclusive means no clear call, values can overlap the other calls; inactive means below that.

assay: EBV LMP1-driven NF-kappaB luciferase reporter inhibitors, primary screen, cell-based, luminescence, single point (AID 504558); details: LMP1-induced NF-kappaB luciferase reporter cells, at 12.5 µM, active compounds read high;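 further: 0% = neutral control wells and 100% = reference inhibitor control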

With `CC(C)(C)C(=O)NC(Sc1ccncn1)C(Cl)(Cl)Cl` (stereo not drawn) as the molecule, how does the inhibition read?
Its inhibition is inactive: 0.96%.

With `O=C(O)CNc1ccc([As](=O)(O)O)cc1` as the molecule, how does the inhibition read?
The inhibition was inactive: 5.2%.

For `O=[N+]([O-])c1cccc(NC2=NCC(CBr)S2)c1` (stereo not drawn), which inhibition is on record?
Its inhibition is inactive: -4.85%.

Which inhibition does the source give for `COC(=O)C1(C)COP(=O)(Nc2ccccc2)OC1` (stereo not drawn) here?
Its inhibition is inactive: 2.32%.

With `COc1ccc(C2=NCC(CBr)S2)cc1` (stereo not drawn) as the molecule, how does the inhibition read?
The inhibition was inactive: -9.18%.

For `Cc1ccc(NP(=O)(Oc2ccccc2)Oc2ccccc2)nc1`, which inhibition is on record?
Its inhibition is inactive: 1.3%.

For `CCc1nc2c(n1)c1c(non1O)c1c2no[n+]1[O-]`, which inhibition is on record?
Its inhibition is inactive: -28.5%.

Which inhibition does the source give for `O=[N+]([O-])c1cc([N+](=O)[O-])c(CCNc2ccccc2)c([N+](=O)[O-])c1` here?
Its inhibition is inactive: 1.23%.

For `O=[N+]([O-])c1cccc2n[nH]nc12`, which inhibition is on record?
Its inhibition is inactive: -0.0685%.

With `CC(=O)N1C2C3N(C(C)=O)C1C1N(C(C)=O)C(C(N1C(C)=O)N3C(C)=O)N2C(C)=O` as the molecule, how does the inhibition read?
The inhibition was inactive: 5.4%.

With `CCN(/C(=N/P(=O)(N1CCOCC1)N1CCOCC1)N1CCOCC1)c1ccc(OC)cc1` as the molecule, how does the inhibition read?
The inhibition was inactive: -9.99%.

With `Nc1ccc([As](=O)(O)c2ccc(N)cc2)cc1` as the molecule, how does the inhibition read?
Its inhibition is inactive: -1.98%.

For `C[N+]1=C2C=CC=CC=C2SC12C([N+](=O)[O-])=CC([N+](=O)[O-])=C[C-]2[N+](=O)[O-]` (stereo not drawn), which inhibition is on record?
The inhibition was inactive: -43.2%.

For `c1cc(-c2nn[nH]n2)ccc1-c1nn[nH]n1`, which inhibition is on record?
The inhibition was inactive: -5.73%.

Which inhibition does the source give for `CC1CCN(C(=O)Oc2c(Cl)cc(Cl)c3cccnc23)CC1` here?
Its inhibition is inactive: 2.33%.

With `CC(C)=N/N=C(\N)N[N+](=O)[O-]` as the molecule, how does the inhibition read?
The inhibition was inactive: 6.36%.

Which inhibition does the source give for `CC(C)c1nc(Nc2ccccc2)n(P(=O)(N(C)C)N(C)C)n1` here?
Its inhibition is inactive: 2.74%.

Which inhibition does the source give for `CN(C)C(=O)OCCc1n(C)cc[n+]1C` here?
Its inhibition is inactive: -1.93%.

Which inhibition does the source give for `COP1(=S)c2c(C)nn(CCC#N)c2N=C(c2ccc(F)cc2)N1C` (stereo not drawn) here?
Its inhibition is inactive: 9.18%.

With `O=C(O)C(=O)c1ccc(N(CCCl)CCCl)cc1` as the molecule, how does the inhibition read?
Its inhibition is inactive: 12.9%.

For `O=C(COc1ccccc1)OC1CN2CCC1CC2` (stereo not drawn), which inhibition is on record?
The inhibition was inactive: 3.34%.

With `O=C(Nc1ccncc1[N+](=O)[O-])c1ccc([N+](=O)[O-])cc1[N+](=O)[O-]` as the molecule, how does the inhibition read?
The inhibition was inactive: 6.81%.

With `O=C(OC1CN2CCC1CC2)c1cccc([N+](=O)[O-])c1` (stereo not drawn) as the molecule, how does the inhibition read?
Its inhibition is inactive: 1.87%.

For `CSc1ccc(Nc2c([N+](=O)[O-])cc([N+](=O)[O-])cc2[N+](=O)[O-])cc1`, which inhibition is on record?
The inhibition was inactive: 0.581%.

Which inhibition does the source give for `CCOC(=O)c1ccc(NC(=O)C(C)(CCl)SC)cc1` (stereo not drawn) here?
The inhibition was inactive: -2.13%.

Which inhibition does the source give for `CCC(C)N(CC(C)C)C(=S)SC(NC(C)=O)C(Cl)(Cl)Cl` (stereo not drawn) here?
Its inhibition is inactive: 2.37%.

Which inhibition does the source give for `CCOC(=O)Nc1ccc([As](=O)(O)O)c(O)c1` here?
The inhibition was inactive: -0.133%.

For `O=C(O)C(O)c1ccc(N(CCCl)CCCl)cc1` (stereo not drawn), which inhibition is on record?
The inhibition was inactive: 30%.

For `CC1CCNP(=O)(N(CCCl)CCCl)O1` (stereo not drawn), which inhibition is on record?
Its inhibition is inactive: -2.28%.

For `COP(=O)(OC)N1CC1c1ccccc1` (stereo not drawn), which inhibition is on record?
The inhibition was inactive: 5.04%.

For `CCCCOc1ccc(C(=O)NCC2(N3CCCCC3)CCCCC2)cc1OC`, which inhibition is on record?
Its inhibition is inactive: -55.9%.

Which inhibition does the source give for `Cc1cc(SC(NC(=O)c2ccccc2)C(Cl)(Cl)Cl)nc(C(C)C)n1` (stereo not drawn) here?
Its inhibition is inactive: -0.748%.

With `CCOC(=O)Nc1cccc([As](=O)(O)O)c1` as the molecule, how does the inhibition read?
Its inhibition is inactive: -4.91%.

Which inhibition does the source give for `O=P(Nc1ccccn1)(c1cccc2ccccc12)c1cccc2ccccc12` here?
Its inhibition is inactive: 5.42%.

Which inhibition does the source give for `Cc1cc(SC(NC=O)C(Cl)(Cl)Cl)ncn1` (stereo not drawn) here?
The inhibition was inactive: 4.95%.

With `O=[N+]([O-])c1ccc(Nc2ccc(Oc3ccc([N+](=O)[O-])cc3[N+](=O)[O-])cc2)c([N+](=O)[O-])c1` as the molecule, how does the inhibition read?
The inhibition was inactive: 5.19%.

For `C[As](=O)(O)c1cccc(C(=O)O)c1`, which inhibition is on record?
Its inhibition is inactive: -2.33%.

With `O=[As](O)(c1ccc(O)cc1)c1ccccc1O` as the molecule, how does the inhibition read?
Its inhibition is inactive: -8.24%.

For `COc1cc(C(=O)NCC2(N3CCOCC3)CCCCC2)ccc1OCC(C)C`, which inhibition is on record?
Its inhibition is inactive: 24.7%.

Which inhibition does the source give for `O=[N+]([O-])c1ccc(-c2cc([N+](=O)[O-])c(O)c([N+](=O)[O-])c2)cc1` here?
Its inhibition is inactive: -1.78%.

For `Cc1ccc(OP(=O)(Nc2ccc([N+](=O)[O-])cn2)Oc2ccc(C)cc2)cc1`, which inhibition is on record?
The inhibition was inactive: -11%.

Which inhibition does the source give for `Cc1ccc2nc3c(c(C)c2c1)CC(C(Cl)Cl)S3` (stereo not drawn) here?
Its inhibition is inactive: -31.3%.

Which inhibition does the source give for `ClCCSc1nnc(-c2cccnc2)o1` here?
The inhibition was inactive: 7.32%.

Which inhibition does the source give for `CC(C)c1ccc(OP(=O)(Nc2ccccn2)Oc2ccccc2F)cc1` (stereo not drawn) here?
Its inhibition is inactive: 0.6%.

Which inhibition does the source give for `COC(=O)C1(C)COP(=O)(N2CCCCCC2)OC1` (stereo not drawn) here?
The inhibition was inactive: 4.03%.

Which inhibition does the source give for `CCN(CC)C(=S)SC(NC=O)C(Cl)(Cl)Cl` (stereo not drawn) here?
The inhibition was inactive: 8.93%.

With `O=C(OC1CN2CCC1CC2)c1cccc2[nH]cnc12` (stereo not drawn) as the molecule, how does the inhibition read?
The inhibition was inactive: -21.6%.

With `CC(C)NC(=O)NP(=O)(Oc1ccccc1)Oc1ccccc1` as the molecule, how does the inhibition read?
Its inhibition is inactive: -1.78%.

For `O=[N+]([O-])c1cc([N+](=O)[O-])c(-c2ccn[nH]2)s1`, which inhibition is on record?
The inhibition was inactive: -14.1%.

For `Cc1c2c(nc3ccccc13)SC(C(Cl)Cl)C2` (stereo not drawn), which inhibition is on record?
The inhibition was inactive: -1.52%.

For `O=C(OC1CN2CCC1CC2)C12CC3CC(CC(C3)C1)C2` (stereo not drawn), which inhibition is on record?
Its inhibition is inactive: 3.32%.

With `Cc1cc(=O)[nH]c(N[N+](=O)[O-])n1` as the molecule, how does the inhibition read?
The inhibition was inactive: 0.619%.

For `O=P1(N(CCCl)CCCl)Nc2ccccc2N1`, which inhibition is on record?
The inhibition was inactive: -11.1%.

For `O=P1(N(CCCl)CCCl)OCCCN1CCCl` (stereo not drawn), which inhibition is on record?
The inhibition was inactive: 2.4%.

With `COc1ccc2nc(NP(=O)(c3ccccc3)c3ccccc3)sc2c1` as the molecule, how does the inhibition read?
The inhibition was inactive: 5.2%.

For `COc1cc(I)ccc1[As](=O)(O)O`, which inhibition is on record?
Its inhibition is inactive: -2.43%.

Which inhibition does the source give for `O=[N+]([O-])c1cc(Oc2ccc([N+](=O)[O-])cc2C(F)(F)F)cc([N+](=O)[O-])c1` here?
The inhibition was inactive: -1.81%.

Which inhibition does the source give for `COc1ccc(N/C(=N/P(=O)(N2CCOCC2)N2CCOCC2)N2CCOCC2)cc1` here?
The inhibition was inactive: 9.02%.

Which inhibition does the source give for `O=C(OC1CN2CCC1CC2)c1ccc(Cl)cc1` (stereo not drawn) here?
The inhibition was inactive: 13%.

With `COc1cc(C(=O)NCC2(N3CCOCC3)CCCCC2)cc(Cl)c1OC(C)C` as the molecule, how does the inhibition read?
The inhibition was inactive: -28.3%.

For `O=[As](O)(O)c1cccnc1`, which inhibition is on record?
Its inhibition is inactive: 3.22%.

For `CS(=O)(=O)c1ccc(Cl)c(NC(=O)COC(=O)C(O)(c2ccccc2)c2ccccc2)c1`, which inhibition is on record?
The inhibition was inactive: -25.6%.

For `O=[As](O)(c1cccc(O)c1)c1cccc(O)c1`, which inhibition is on record?
The inhibition was inactive: -4.9%.
